Here are results for one compound from PMC5431342, “Discovery of an enzyme and substrate selective inhibitor of ADAM10 using an exosite-binding glycosylated substrate” (Scientific Reports, 2016).

The chains behind the UniProt entries cited, without tags or fusion partners. Residues count along the entry.
UniProt O14672, 214-748 limits assumed: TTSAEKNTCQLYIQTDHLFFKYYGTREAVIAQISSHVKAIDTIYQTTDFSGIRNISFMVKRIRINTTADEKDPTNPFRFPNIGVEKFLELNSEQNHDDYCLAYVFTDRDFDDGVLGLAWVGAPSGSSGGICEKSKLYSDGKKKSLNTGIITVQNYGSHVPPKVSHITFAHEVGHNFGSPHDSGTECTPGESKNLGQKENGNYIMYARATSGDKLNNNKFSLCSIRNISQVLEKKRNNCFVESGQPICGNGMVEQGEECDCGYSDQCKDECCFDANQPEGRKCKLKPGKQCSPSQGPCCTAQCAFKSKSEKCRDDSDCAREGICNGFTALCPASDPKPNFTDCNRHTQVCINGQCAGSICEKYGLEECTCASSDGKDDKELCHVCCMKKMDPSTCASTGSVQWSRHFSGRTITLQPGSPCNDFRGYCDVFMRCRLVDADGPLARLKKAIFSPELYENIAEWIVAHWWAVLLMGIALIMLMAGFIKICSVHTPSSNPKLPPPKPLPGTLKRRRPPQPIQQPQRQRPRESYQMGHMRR

For this assay, the target named is ADAM10 (Homo sapiens, UniProt O14672). Description: ADAM10 glycosylated substrate uHTS/HTS assay. The class given is biochemical. On the procedure:
To enable uHTS both ADAM10 and ADAM17 glycosylated substrate[13] (Fig. 1A) assays were miniaturized to 1536 well plate format. The workflow of the assays in 384 well plate format was recaptured in 1536 well plate format and assay volume was scaled down to 5 µL.
Both assays followed the same general protocol. […] Reactions were incubated at RT for 2 h, after which the fluorescence was measured using Perkin Elmer Viewlux multimode microplate imager (λexcitation = 360 nm, λemission = 460 nm). Final concentration of test compounds in assays was 7.0 µM.
The miniaturized 1536-well plate format ADAM10 and ADAM17 assays were used to screen a collection of ≈370,000 compounds (MLSMR library, provided by the NIH) on the automated Kalypsys/GNF platform at the Scripps Research Institute Molecular Screening Center (SRIMSC, Jupiter, FL. More details at http://hts.florida.scripps.edu/). […] Both uHTS campaigns were run separately but in a similar manner. Briefly, the first step was the primary screen of all MLSMR’s test compounds as singlicate against the ADAM10 or ADAM17 target at a final concentration of 7.0 μM. […] Sample to background (S/B) ratios, as well as Z and Z′ values were calculated on a per-plate basis as described before. […]

`CCCCC[C@H](CC(=O)NO)C(=O)N[C@H](C(=O)N1CCC[C@H]1CO)C(C)C` returned an IC50 of more than 70 µM.

Usually IC50 stands for the concentration that inhibits the measured activity by half.
